{
  "source": "PubChem BioAssay AID463079",
  "about": "(The Scripps Research Institute Molecular Screening Center, 2010)",
  "note": "This is a selection; strong and weak results do not stand in their true shares. Some tests of the compounds listed are not included; inactive here does not mean inactive elsewhere. The source made the active and inactive calls.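 The calls were made as follows: active = inhibition above that plate's mean sample inhibition plus 3 SD (cut at about 26% in these data); inactive = the rest.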",
  "data": [
    {"assay": "nonselective Gq signaling inhibition in CHO cells – cell-based, fluorescence, Fluo-8 calcium dye, counter-screen for OX1R antagonist project, primary screen (AID 463079);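 also: 0% = ATP-challenged DMSO wells and 100% = DMSO wells without ATP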", "settings": "parental CHO-K1, ATP-induced calcium, Fluo-8 fluorescence; at 5.6 µM; stronger effect = higher value", "in_short": "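Assay system – parental CHO cells · Reagent – ATP stimulus · Detection – intracellular calcium via Fluo-8 no-wash fluorescent dye · Evaluation – percent inhibition of ATP-evoked calcium rise, normalized to controls · Controls – ATP wells versus no-ATP DMSO wells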", "values": [
      {"smiles": "CC(C)Oc1ccc(C(=O)NCC2(N(C)C)CCCCC2)cc1", "inhibition": "inactive: -7.85%"},
      {"smiles": "CN(C)c1cccc(C(=O)NCC2(N(C)C)CCCCC2)c1", "inhibition": "inactive: -17.5%"},
      {"smiles": "COc1ccc(Br)c(C(=O)NCC2(N3CCCCC3)CCCCC2)c1", "inhibition": "inactive: -29.6%"},
      {"smiles": "O=C(OC1CN2CCC1CC2)C(CO)(c1ccccc1)c1ccccc1", "note": "(centres undefined)", "inhibition": "inactive: -0.27%"},
      {"smiles": "O=C(NCC1(N2CCCCC2)CCCCC1)c1cccc(Cl)c1", "inhibition": "inactive: -11.5%"},
      {"smiles": "COc1ccc(Cl)cc1C(=O)NCC1(N(C)C)CCCCC1", "inhibition": "inactive: -7.51%"},
      {"smiles": "COc1cccc(C(=O)NCC2(N3CCCCC3)CCCCC2)c1", "inhibition": "inactive: -24.1%"},
      {"smiles": "COc1cc(C(=O)NCC2(N(C)C)CCCCC2)c([N+](=O)[O-])cc1OC", "inhibition": "inactive: -14.8%"},
      {"smiles": "CN(C)C1(CNC(=O)c2ccc(Br)cc2)CCCCC1", "inhibition": "inactive: -6.73%"},
      {"smiles": "COc1ccc(C(=O)NCC2(N(C)C)CCCCC2)cc1", "inhibition": "inactive: -10.5%"},
      {"smiles": "O=C(NCC1(N2CCCCC2)CCCCC1)c1cccc(Br)c1", "inhibition": "inactive: -28%"},
      {"smiles": "CCN1CCCC(OC(=O)C2(O)c3ccccc3C=Cc3ccccc32)C1", "note": "(centres undefined)", "inhibition": "inactive: -10.5%"},
      {"smiles": "Cc1cc(C(=O)NCC2(N3CCCCC3)CCCCC2)ccc1[N+](=O)[O-]", "inhibition": "inactive: -15.8%"},
      {"smiles": "O=C(NCC1(N2CCCCC2)CCCCC1)c1cc(F)c(F)cc1Cl", "inhibition": "inactive: -20.4%"},
      {"smiles": "C=CCN1CCN(CCOC(=O)C(O)(c2ccccc2)c2ccccc2)CC1", "inhibition": "inactive: -13.1%"},
      {"smiles": "CN(C)c1ccc(C(=O)NCC2(N(C)C)CCCCC2)cc1", "inhibition": "inactive: -5.93%"},
      {"smiles": "CN(C)C1CCCC1OC(=O)C(O)(c1ccccc1)c1ccccc1", "note": "(centres undefined)", "inhibition": "inactive: -8.85%"},
      {"smiles": "Cc1ccccc1C(=O)NCC1(N2CCCCC2)CCCCC1", "inhibition": "inactive: -25.7%"},
      {"smiles": "Cc1ccc(C(=O)NCC2(N3CCCCC3)CCCCC2)cc1", "inhibition": "inactive: -13.8%"},
      {"smiles": "COc1cc(SC)ccc1C(=O)NCC1(N(C)C)CCCCC1", "inhibition": "inactive: -13.2%"},
      {"smiles": "CCN(CC)CC(C)C(C)OC(=O)C(O)(c1ccccc1)c1ccccc1", "note": "(centres undefined)", "inhibition": "inactive: -16.1%"},
      {"smiles": "CC(C)N1C(=O)CC2(CCN(CCOC(=O)C(O)(c3ccccc3)c3ccccc3)CC2)C1=O", "inhibition": "inactive: -8.35%"},
      {"smiles": "CN1[C@@H]2CC[C@H]1CC(OC(=O)C(O)(c1ccccc1)c1ccccc1)C2", "note": "(some centres undefined)", "inhibition": "inactive: -13.1%"},
      {"smiles": "O=C(NCC1(N2CCCCC2)CCCCC1)c1cc([N+](=O)[O-])ccc1Cl", "inhibition": "inactive: -25%"}
    ]}
  ]
}
